Test results as given in patent publication US20260116920A1, “HUMAN TRANSFERRIN RECEPTOR BINDING PEPTIDE” (PEPTIDREAM INC., priority 2021, published 2026).

The chains behind the UniProt entries cited, without tags or fusion partners. Residues count along the entry.
UniProt P02786, 89-760 limits assumed: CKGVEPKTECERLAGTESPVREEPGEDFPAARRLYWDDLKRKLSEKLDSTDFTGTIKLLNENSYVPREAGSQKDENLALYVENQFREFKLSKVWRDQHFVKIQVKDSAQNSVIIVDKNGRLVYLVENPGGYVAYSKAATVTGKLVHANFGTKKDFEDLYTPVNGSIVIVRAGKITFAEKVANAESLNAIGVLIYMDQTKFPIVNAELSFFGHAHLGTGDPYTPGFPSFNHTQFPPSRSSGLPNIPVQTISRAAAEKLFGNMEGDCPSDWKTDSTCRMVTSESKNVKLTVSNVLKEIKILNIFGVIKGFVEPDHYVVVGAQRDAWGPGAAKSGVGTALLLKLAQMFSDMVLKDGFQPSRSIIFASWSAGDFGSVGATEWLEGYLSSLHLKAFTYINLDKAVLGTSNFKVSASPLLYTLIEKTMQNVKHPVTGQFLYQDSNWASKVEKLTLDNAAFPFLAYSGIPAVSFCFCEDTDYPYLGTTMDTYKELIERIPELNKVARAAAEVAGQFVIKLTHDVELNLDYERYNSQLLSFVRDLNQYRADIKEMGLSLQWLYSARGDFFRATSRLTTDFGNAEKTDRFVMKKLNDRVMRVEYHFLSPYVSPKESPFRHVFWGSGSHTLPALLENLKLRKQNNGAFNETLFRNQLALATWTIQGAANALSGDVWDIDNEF

biological target: T1, human transferrin receptor (hTfR) (Homo sapiens, UniProt P02786); test: Evaluation of molecular interaction between transferrin receptor (hTfR) and peptide using surface plasmon resonance (SPR); assay type: binding; conditions: KD class of peptide with linker binding to hTfR, by SPR (TABLE 5); read-out: SPR
T1 construct: made in house
Method in brief: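 Recombinant human TfR dimer (0.5 μM) was captured on a Ni-charged NTA chip and amine-coupled with EDC/NHS, then ethanolamine-capped. Peptides at 5–100 nM in HEPES pH 8.0 buffer with 150 mM NaCl, 0.05% Tween 20, 0.1% BSA and 1.0% DMSO were run by single-cycle kinetics; KD came from least-squares curve fitting.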

Kd, 0.001 to 0.1 µM:
CC[C@H](C)[C@@H]1NC(=O)[C@H](Cc2ccc(OCC(=O)O)cc2)NC(=O)[C@H](Cc2ccc(N)nc2)NC(=O)[C@H](CC(N)=O)NC(=O)[C@H](Cc2c[nH]c3ccccc23)NC(=O)[C@H](C(C)C)NC(=O)[C@H](Cc2cccc(Cl)c2)N(C)C(=O)[C@H](C(C)C)NC(=O)[C@H](C)NC(=O)CSC[C@@H](C(=O)NCC(=O)N[C@H](CO)C(=O)N[C@H](CO)C(=O)N[C@H](CO)C(=O)N[C@H](CO)C(=O)N[C@H](CO)C(=O)N[C@@H](CCCCN=[N+]=[N-])C(N)=O)NC(=O)[C@H](Cc2ccc(O)cc2)N(C)C(=O)[C@H](Cc2cccc(C(=O)O)c2)NC(=O)[C@H](CCCNC(=N)N)NC(=O)[C@H](CCC(=O)NCCOCCOCCOCCOCCOCCOCCOCCOC)NC(=O)[C@H]([C@@H](C)CC)NC1=O [compound 335], CC[C@H](C)[C@@H]1NC(=O)[C@H](Cc2ccc(OCC(=O)O)cc2)NC(=O)[C@H](Cc2ccc(N)nc2)NC(=O)[C@H](CC(N)=O)NC(=O)[C@H](Cc2c[nH]c3ccccc23)NC(=O)[C@H](C(C)C)NC(=O)[C@H](Cc2cccc(Cl)c2)N(C)C(=O)[C@H](C(C)C)NC(=O)[C@H](C)NC(=O)CSC[C@@H](C(=O)NCC(=O)N[C@H](CCC(=O)O)C(=O)N[C@H](CCC(=O)O)C(=O)N[C@H](CO)C(=O)N[C@H](CO)C(=O)N[C@H](CO)C(=O)N[C@H](CCCCN)C(N)=O)NC(=O)[C@H](Cc2ccc(O)cc2)N(C)C(=O)[C@H](Cc2cccc(C(=O)O)c2)NC(=O)[C@H](CCCNC(=N)N)NC(=O)[C@H](CCC(=O)NCCOCCOCCOCCOCCOCCOCCOCCOC)NC(=O)[C@H]([C@@H](C)CC)NC1=O [compound 336], CC[C@H](C)[C@@H]1NC(=O)[C@H](Cc2ccc(OCC(=O)O)cc2)NC(=O)[C@H](Cc2ccc(N)nc2)NC(=O)[C@H](CC(N)=O)NC(=O)[C@H](Cc2c[nH]c3ccccc23)NC(=O)[C@H](C(C)C)NC(=O)[C@H](Cc2cccc(Cl)c2)N(C)C(=O)[C@H](C(C)C)NC(=O)[C@H](C)NC(=O)CSC[C@@H](C(=O)NCC(=O)N[C@H](CCC(=O)O)C(=O)N[C@H](CO)C(=O)N[C@H](CO)C(=O)N[C@H](CO)C(=O)N[C@H](CO)C(=O)N[C@H](CCCCN)C(N)=O)NC(=O)[C@H](Cc2ccc(O)cc2)N(C)C(=O)[C@H](Cc2cccc(C(=O)O)c2)NC(=O)[C@H](CCCNC(=N)N)NC(=O)[C@H](CCC(=O)NCCOCCOCCOCCOCCOCCOCCOCCOC)NC(=O)[C@H]([C@@H](C)CC)NC1=O [compound 337], CC[C@H](C)[C@@H]1NC(=O)[C@H](Cc2ccc(OCC(=O)O)cc2)NC(=O)[C@H](Cc2ccc(N)nc2)NC(=O)[C@H](CC(N)=O)NC(=O)[C@H](Cc2c[nH]c3ccccc23)NC(=O)[C@H](C(C)C)NC(=O)[C@H](Cc2cccc(Cl)c2)N(C)C(=O)[C@H](C(C)C)NC(=O)[C@H](C)NC(=O)CSC[C@@H](C(=O)NCC(=O)NCC(=O)NCC(=O)NCC(=O)N[C@@H](CO)C(=O)N[C@@H](CO)C(=O)N[C@H](CCCCN)C(N)=O)NC(=O)[C@H](Cc2ccc(O)cc2)N(C)C(=O)[C@H](Cc2cccc(C(=O)O)c2)NC(=O)[C@H](CCCNC(=N)N)NC(=O)[C@H](CCC(=O)NCCOCCOCCOCCOCCOCCOCCOCCOC)NC(=O)[C@H]([C@@H](C)CC)NC1=O [compound 338], CC[C@H](C)[C@@H]1NC(=O)[C@H](Cc2ccc(OCC(=O)O)cc2)NC(=O)[C@H](Cc2ccc(N)nc2)NC(=O)[C@H](CC(N)=O)NC(=O)[C@H](Cc2c[nH]c3ccccc23)NC(=O)[C@H](C(C)C)NC(=O)[C@H](Cc2cccc(Cl)c2)N(C)C(=O)[C@H](C(C)C)NC(=O)[C@H](C)NC(=O)CSC[C@@H](C(=O)NCC(=O)NCC(=O)NCC(=O)NCC(=O)N[C@H](CO)C(=O)N[C@H](CO)C(=O)N[C@H](CCCCN)C(N)=O)NC(=O)[C@H](Cc2ccc(O)cc2)N(C)C(=O)[C@H](Cc2cccc(C(=O)O)c2)NC(=O)[C@H](CCCNC(=N)N)NC(=O)[C@H](CCC(=O)NCCOCCOCCOCCOCCOCCOCCOCCOC)NC(=O)[C@H]([C@@H](C)CC)NC1=O [compound 339], CC[C@H](C)[C@@H]1NC(=O)[C@H](Cc2ccc(OCC(=O)O)cc2)NC(=O)[C@H](Cc2ccc(N)nc2)NC(=O)[C@H](CC(N)=O)NC(=O)[C@H](Cc2c[nH]c3ccccc23)NC(=O)[C@H](C(C)C)NC(=O)[C@H](Cc2cccc(Cl)c2)N(C)C(=O)[C@H](C(C)C)NC(=O)[C@H](C)NC(=O)CSC[C@@H](C(=O)NCC(=O)NCC(=O)N[C@H](CO)C(=O)NCC(=O)N[C@H](CO)C(=O)NCC(=O)N[C@H](CCCCN)C(N)=O)NC(=O)[C@H](Cc2ccc(O)cc2)N(C)C(=O)[C@H](Cc2cccc(C(=O)O)c2)NC(=O)[C@H](CCCNC(=N)N)NC(=O)[C@H](CCC(=O)NCCOCCOCCOCCOCCOCCOCCOCCOC)NC(=O)[C@H]([C@@H](C)CC)NC1=O [compound 340], CC[C@H](C)[C@@H]1NC(=O)[C@H](Cc2ccc(OCC(=O)O)cc2)NC(=O)[C@H](Cc2ccc(N)nc2)NC(=O)[C@H](CC(N)=O)NC(=O)[C@H](Cc2c[nH]c3ccccc23)NC(=O)[C@H](C(C)C)NC(=O)[C@H](Cc2cccc(Cl)c2)N(C)C(=O)[C@H](C(C)C)NC(=O)[C@H](C)NC(=O)CSC[C@@H](C(=O)NCC(=O)N[C@H](CO)C(=O)N[C@H](CO)C(=O)N[C@H](CO)C(=O)N[C@H](CO)C(=O)N[C@H](CO)C(=O)N[C@H](CCCCN)C(N)=O)NC(=O)[C@H](Cc2ccc(O)cc2)N(C)C(=O)[C@H](Cc2cccc(C(=O)O)c2)NC(=O)[C@H](CCCNC(=N)N)NC(=O)[C@H](CCC(=O)NCCOCCOCCOCCOCCOCCOCCOCCOC)NC(=O)[C@H]([C@@H](C)CC)NC1=O [compound 341], CC[C@H](C)[C@@H]1NC(=O)[C@H](Cc2ccc(OCC(=O)O)cc2)NC(=O)[C@H](Cc2ccc(N)nc2)NC(=O)[C@H](CC(N)=O)NC(=O)[C@H](Cc2c[nH]c3ccccc23)NC(=O)[C@H](C(C)C)NC(=O)[C@H](Cc2cccc(Cl)c2)N(C)C(=O)[C@H](C(C)C)NC(=O)[C@H](C)NC(=O)CSC[C@@H](C(=O)NCC(=O)N[C@@H](CO)C(=O)N[C@@H](CO)C(=O)N[C@@H](CO)C(=O)N[C@@H](CO)C(=O)N[C@@H](CO)C(=O)N[C@H](CCCCN)C(N)=O)NC(=O)[C@H](Cc2ccc(O)cc2)N(C)C(=O)[C@H](Cc2cccc(C(=O)O)c2)NC(=O)[C@H](CCCNC(=N)N)NC(=O)[C@H](CCC(=O)NCCOCCOCCOCCOCCOCCOCCOCCOC)NC(=O)[C@H]([C@@H](C)CC)NC1=O [compound 342], CC[C@H](C)[C@@H]1NC(=O)[C@H](Cc2ccc(OCC(=O)O)cc2)NC(=O)[C@H](Cc2ccc(N)nc2)NC(=O)[C@H](CC(N)=O)NC(=O)[C@H](Cc2c[nH]c3ccccc23)NC(=O)[C@H](C(C)C)NC(=O)[C@H](Cc2cccc(Cl)c2)N(C)C(=O)[C@H](C(C)C)NC(=O)[C@H](C)NC(=O)CSC[C@@H](C(=O)NCC(=O)N[C@H](CO)C(=O)N[C@H](CO)C(=O)N[C@H](CO)C(=O)N[C@H](CCC(=O)O)C(=O)N[C@H](CCC(=O)O)C(=O)N[C@H](CCCCN)C(N)=O)NC(=O)[C@H](Cc2ccc(O)cc2)N(C)C(=O)[C@H](Cc2cccc(C(=O)O)c2)NC(=O)[C@H](CCCNC(=N)N)NC(=O)[C@H](CCC(=O)NCCOCCOCCOCCOCCOCCOCCOCCOC)NC(=O)[C@H]([C@@H](C)CC)NC1=O [compound 343]
